Apparent affinities of Ab-14 variants for a coronavirus HR2 peptide

From the AlphaSeq antibody data of Li et al. 2023 (doi:10.1038/s41467-023-39022-2), copy in the FLAb collection.

Binding partner: SARS-CoV-2 spike HR2 peptide, sequence PDVDLGDISGINAS.

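Phage display of a naive human antibody library on the peptide gave the parent. Designed CDR sequences, proposed from the first random library and measured here. Their group label is 14L_GP_Gen (GP: Gaussian process model; Gen: genetic algorithm; a sequence that several methods proposed may carry one label only). In AlphaSeq, yeast of one mating type display the scFv and yeast of the other type display the target. Mating (16 h, 30 °C) was followed by selection of diploids and sequencing of their barcodes. Read counts were normalised to the haploid input and turned into Kd by a linear fit to BCL2-family pairs of known affinity, for each replicate. The assay was run in six technical replicates.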

Parent: Ab-14, a human scFv built as VH, a (GGGGS)3 linker, VL. Only the CDRs of the light chain vary.
VH: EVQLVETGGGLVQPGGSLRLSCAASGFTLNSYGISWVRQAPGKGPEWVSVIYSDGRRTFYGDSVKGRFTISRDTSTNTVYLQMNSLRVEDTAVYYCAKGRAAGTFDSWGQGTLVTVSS
VL: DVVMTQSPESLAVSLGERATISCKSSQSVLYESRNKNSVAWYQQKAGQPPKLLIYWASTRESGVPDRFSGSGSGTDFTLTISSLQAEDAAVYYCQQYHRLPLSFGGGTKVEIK

Substitutions are numbered in sequence along the VL above, starting at 1 (not Kabat).
Values are log10 of the apparent Kd in nM; lower means stronger binding.
A mean of the replicates is given; it leaves out those without a signal.
Background: pairings of all light chain designs with three empty control strains gave a value in 4% of cases (median 2.64, 5th percentile 1.59). Values in that range, when seen in few replicates, are hard to tell from nonspecific mating. Also given: how often the same scFv was detected with the empty control strains, with their mean in brackets.
The authors' rule: three or more of the six replicates give a measured affinity, fewer mean a poor binder.
A sequence measured in both rounds can read differently, since the two assays cover different ranges.
Of ten entries with the parent sequence, four were seen in most replicates (averages 0.34 to 2.37), three in one and three in none, so single entries are noisy.

changes	log10 Kd, replicates	mean log10 Kd (nM)	signal with controls
S25F/V29Y/W56N/T59Q	0.26 / 0.15 / 0.03 / 0.36 / 0.71 / 0.51	0.34	0/18
S25L/S26Q/V29W/L30P/W56N/E61L	-0.04 / -0.04 / -0.42 / 0.19 / -0.19 / -0.03	-0.09	0/18
S25L/W56E/E61Y	-0.21 / -0.31 / -0.29 / -0.36 / -0.27 / -0.15	-0.27	1/18 (3.67)
S25V/Q27P/W56N	-0.17 / -0.08 / -0.10 / -0.18 / -0.31 / -0.28	-0.19	1/18 (4.23)
S25V/V29H/W56H	0.90 / 1.09 / 0.58 / 0.38 / 0.37 / 1.01	0.72	0/18
S25L/S26E/W56N/S62D	0.02 / -0.19 / -0.32 / -0.08 / -0.21 / -0.09	-0.15	0/18
S25L/S26P/V29M/W56N/E61L	0.27 / 0.05 / 0.18 / -0.11 / 0.00 / 0.19	0.10	2/18 (4.70)
S25L/S26Q/L30G/W56N	-0.23 / -0.23 / -0.39 / -0.37 / -0.31 / -0.12	-0.28	0/18
S25L/L30P/W56N/E61S	-0.05 / -0.22 / -0.16 / -0.19 / -0.26 / 0.10	-0.13	1/18 (3.00)
S25L/S26E/V29E/W56N/T59Q/S62Q	0.57 / 1.01 / 0.59 / 1.68 / 1.01 / 0.60	0.91	0/18
S25L/V29E/W56E/S62V	0.54 / 0.47 / 0.24 / 0.05 / 0.17 / 0.34	0.30	0/18
S25M/S26P/V29M/W56N/T59Q	-0.21 / -0.17 / -0.25 / -0.27 / -0.27 / -0.09	-0.21	3/18 (3.70)
S25L/V29E/W56N/T59L/E61L	0.13 / 0.02 / 0.02 / 0.10 / 0.13 / 0.25	0.11	2/18 (2.90)
S25F/W56G/E61C	0.12 / -0.09 / -0.37 / -0.44 / -0.41 / -0.10	-0.22	0/18
S25L/S26M/V29W/W56N/T59Q/E61M	-0.12 / -0.34 / -0.30 / -0.44 / -0.29 / -0.30	-0.30	0/18
S25L/V29N/W56N/S62M	-0.23 / -0.09 / -0.35 / -0.42 / -0.24 / -0.27	-0.27	0/18
S25V/V29F/W56N	-0.19 / -0.17 / -0.31 / -0.40 / -0.49 / -0.34	-0.32	1/18 (2.88)
S25M/L30W/W56D	-0.26 / -0.22 / 0.16 / -0.24 / 0.03 / -0.12	-0.11	0/18
S25L/S26E/V29Q/W56N/S62D	0.13 / 0.12 / -0.17 / 0.09 / -0.19 / 0.01	0.00	0/18
S25L/S26Q/V29E/K36C/W56N/T59Q	0.01 / 0.16 / 0.07 / 0.09 / -0.08 / 0.16	0.07	1/18 (2.19)
S25F/L30D/W56N	0.22 / 0.24 / 0.06 / -0.08 / 0.07 / 0.03	0.09	0/18
S25L/Y31M/K36S/W56N	0.39 / 0.41 / 0.52 / 0.17 / 0.40 / 0.43	0.38	3/18 (3.17)
S25V/V29E/Y31M/W56E	-0.03 / -0.19 / -0.19 / -0.18 / -0.11 / -0.16	-0.14	1/18 (2.21)
V29W/W56N/T59Q/S62Q	-0.02 / 0.03 / -0.01 / -0.13 / -0.01 / 0.06	-0.01	1/18 (3.40)
S25C/W56N	0.09 / -0.20 / -0.14 / -0.23 / 0.05 / 0.19	-0.04	0/18
S25L/S26Q/V29F/W56E	0.03 / 0.09 / 0.10 / -0.10 / 0.23 / 0.30	0.11	2/18 (2.97)
S25V/W56E/Q96S	0.09 / -0.25 / -0.52 / -0.47 / -0.17 / -0.28	-0.27	0/18
S25L/S26Y/V29Q/L30G/W56N/T59Q	0.03 / -0.26 / -0.29 / -0.28 / -0.43 / -0.20	-0.24	1/18 (1.69)
S25L/S26E/S33D/W56N	-0.26 / -0.52 / -0.56 / -0.53 / -0.68 / -0.44	-0.50	5/18 (2.44)
S25L/L30E/K36S/W56N	-0.16 / -0.34 / -0.17 / -0.53 / -0.16 / -0.11	-0.24	0/18
S25L/S26P/V29T/W56A	0.02 / -0.12 / -0.17 / -0.36 / -0.03 / 0.00	-0.11	0/18
S25L/W56Q/Q96D	-0.03 / -0.16 / 0.12 / -0.09 / -0.30 / -0.16	-0.10	1/18 (2.80)
S25L/V29M/N37M/W56N	-0.22 / -0.38 / -0.39 / -0.45 / -0.29 / -0.14	-0.31	1/18 (4.20)
S25L/Q27P/V29E/W56E	0.40 / 0.52 / 0.07 / 0.44 / 0.27 / 0.36	0.34	1/18 (1.75)
S25L/S26M/V29Y/W56N	0.37 / 0.48 / 0.27 / 0.07 / 0.27 / 0.60	0.34	1/18 (2.56)
S25L/S26P/V29W/S38A/W56N/T59Q	0.13 / 0.14 / -0.05 / -0.03 / -0.08 / 0.22	0.06	4/18 (3.34)
S25L/S26M/W56N/T59Q/S62D	-0.08 / -0.28 / -0.15 / -0.26 / -0.43 / -0.12	-0.22	0/18
S25L/S26E/V29W/W56H	0.01 / -0.24 / -0.20 / -0.56 / -0.35 / -0.22	-0.26	1/18 (2.15)
S25V/Q27P/V29W/W56E	0.04 / -0.30 / -0.20 / -0.32 / -0.26 / -0.22	-0.21	0/18
S25L/V29M/L30G/W56N	-0.16 / -0.33 / -0.35 / -0.44 / -0.29 / -0.35	-0.32	0/18
S25L/S26Q/V29Y/L30E/W56N	-0.28 / -0.33 / -0.44 / -0.39 / -0.33 / -0.26	-0.34	4/18 (3.48)
S25L/L30D/W56N/S62Q	-0.09 / -0.30 / -0.45 / -0.53 / -0.53 / -0.31	-0.37	0/18
S25F/S26E/V29Q/S38A/W56N	0.48 / 0.22 / 0.26 / 0.26 / 0.27 / 0.39	0.31	0/18
S25L/S26P/V29W/W56N/T59Q/Q96D	0.12 / -0.11 / 0.04 / -0.23 / -0.31 / 0.02	-0.08	1/18 (4.34)

Top 5 of the variants detected in all replicates, tightest first:

changes,"log10 Kd, replicates",mean log10 Kd (nM),signal with controls
S25L/S26E/S33D/W56N,-0.26 / -0.52 / -0.56 / -0.53 / -0.68 / -0.44,-0.50,5/18 (2.44)
S25L/L30D/W56N/S62Q,-0.09 / -0.30 / -0.45 / -0.53 / -0.53 / -0.31,-0.37,0/18
S25L/S26Q/V29Y/L30E/W56N,-0.28 / -0.33 / -0.44 / -0.39 / -0.33 / -0.26,-0.34,4/18 (3.48)
S25L/V29M/L30G/W56N,-0.16 / -0.33 / -0.35 / -0.44 / -0.29 / -0.35,-0.32,0/18
S25V/V29F/W56N,-0.19 / -0.17 / -0.31 / -0.40 / -0.49 / -0.34,-0.32,1/18 (2.88)